Assay results reported in BindingDB's records for 27364609 (Florida A&M University, 2016).

Amino acid sequences for entries named in this document (tags omitted). Chains listed by the source or under a name are the forms on record and can include a tag or linker.
UniProt P14416, whole entry: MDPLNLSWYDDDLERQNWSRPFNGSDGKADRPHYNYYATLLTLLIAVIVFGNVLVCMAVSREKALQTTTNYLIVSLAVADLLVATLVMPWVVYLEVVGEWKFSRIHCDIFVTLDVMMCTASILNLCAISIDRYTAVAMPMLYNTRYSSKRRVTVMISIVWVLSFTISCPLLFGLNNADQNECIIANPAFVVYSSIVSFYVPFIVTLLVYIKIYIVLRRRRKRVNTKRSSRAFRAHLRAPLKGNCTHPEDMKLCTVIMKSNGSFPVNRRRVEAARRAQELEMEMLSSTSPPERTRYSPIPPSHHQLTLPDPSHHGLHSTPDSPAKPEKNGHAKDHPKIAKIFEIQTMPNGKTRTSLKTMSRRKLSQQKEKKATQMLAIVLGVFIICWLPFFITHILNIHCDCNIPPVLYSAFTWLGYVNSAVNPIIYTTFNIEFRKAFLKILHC
UniProt P21917, whole entry: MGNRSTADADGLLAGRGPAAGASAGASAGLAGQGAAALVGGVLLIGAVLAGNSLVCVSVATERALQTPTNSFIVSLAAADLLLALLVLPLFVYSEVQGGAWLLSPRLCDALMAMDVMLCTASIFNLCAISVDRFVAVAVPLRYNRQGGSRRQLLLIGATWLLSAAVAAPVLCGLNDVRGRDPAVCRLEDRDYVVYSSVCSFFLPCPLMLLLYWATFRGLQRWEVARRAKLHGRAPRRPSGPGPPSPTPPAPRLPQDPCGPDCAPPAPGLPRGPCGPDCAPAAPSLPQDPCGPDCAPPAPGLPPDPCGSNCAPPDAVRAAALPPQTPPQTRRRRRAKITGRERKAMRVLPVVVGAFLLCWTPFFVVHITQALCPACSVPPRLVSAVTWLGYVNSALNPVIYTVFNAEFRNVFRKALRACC
UniProt P35462, with tags, fused parts or gaps: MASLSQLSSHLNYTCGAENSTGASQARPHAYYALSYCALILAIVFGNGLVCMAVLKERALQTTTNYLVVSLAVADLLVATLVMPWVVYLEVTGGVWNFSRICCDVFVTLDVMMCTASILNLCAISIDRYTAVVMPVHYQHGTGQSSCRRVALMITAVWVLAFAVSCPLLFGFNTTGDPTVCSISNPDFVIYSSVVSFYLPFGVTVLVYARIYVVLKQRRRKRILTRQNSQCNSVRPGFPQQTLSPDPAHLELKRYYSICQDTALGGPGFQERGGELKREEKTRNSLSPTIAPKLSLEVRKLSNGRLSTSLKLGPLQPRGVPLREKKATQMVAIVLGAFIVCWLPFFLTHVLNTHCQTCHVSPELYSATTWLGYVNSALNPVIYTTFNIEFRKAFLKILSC
UniProt P31645, whole entry: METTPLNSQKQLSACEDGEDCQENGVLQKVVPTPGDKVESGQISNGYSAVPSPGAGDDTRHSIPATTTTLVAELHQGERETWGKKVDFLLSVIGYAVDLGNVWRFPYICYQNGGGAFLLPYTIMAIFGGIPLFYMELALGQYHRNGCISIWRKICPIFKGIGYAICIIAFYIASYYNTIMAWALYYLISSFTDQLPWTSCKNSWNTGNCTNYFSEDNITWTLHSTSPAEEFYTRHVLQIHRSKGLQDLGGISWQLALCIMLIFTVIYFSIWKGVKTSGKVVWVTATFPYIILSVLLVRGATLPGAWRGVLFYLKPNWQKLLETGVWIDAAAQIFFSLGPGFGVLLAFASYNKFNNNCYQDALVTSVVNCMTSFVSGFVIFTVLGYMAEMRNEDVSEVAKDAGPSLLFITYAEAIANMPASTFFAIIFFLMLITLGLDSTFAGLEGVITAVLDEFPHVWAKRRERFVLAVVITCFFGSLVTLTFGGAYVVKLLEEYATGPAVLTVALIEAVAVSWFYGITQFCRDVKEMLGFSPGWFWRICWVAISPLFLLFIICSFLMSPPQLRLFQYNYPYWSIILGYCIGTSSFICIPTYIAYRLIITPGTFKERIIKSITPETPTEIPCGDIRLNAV
UniProt P35367, whole entry: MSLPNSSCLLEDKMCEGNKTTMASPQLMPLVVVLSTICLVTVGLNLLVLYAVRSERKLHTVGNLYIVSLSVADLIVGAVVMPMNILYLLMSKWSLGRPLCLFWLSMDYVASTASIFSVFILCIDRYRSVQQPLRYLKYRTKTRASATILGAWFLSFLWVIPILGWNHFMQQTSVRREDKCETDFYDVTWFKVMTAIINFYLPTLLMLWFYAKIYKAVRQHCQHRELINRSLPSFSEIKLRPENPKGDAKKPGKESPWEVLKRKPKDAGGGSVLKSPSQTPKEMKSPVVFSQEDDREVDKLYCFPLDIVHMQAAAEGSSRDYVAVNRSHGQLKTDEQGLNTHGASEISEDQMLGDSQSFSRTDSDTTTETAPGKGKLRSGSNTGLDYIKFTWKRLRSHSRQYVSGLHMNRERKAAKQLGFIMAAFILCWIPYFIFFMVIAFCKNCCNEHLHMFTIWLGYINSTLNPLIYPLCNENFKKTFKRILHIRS
UniProt P08908, whole entry: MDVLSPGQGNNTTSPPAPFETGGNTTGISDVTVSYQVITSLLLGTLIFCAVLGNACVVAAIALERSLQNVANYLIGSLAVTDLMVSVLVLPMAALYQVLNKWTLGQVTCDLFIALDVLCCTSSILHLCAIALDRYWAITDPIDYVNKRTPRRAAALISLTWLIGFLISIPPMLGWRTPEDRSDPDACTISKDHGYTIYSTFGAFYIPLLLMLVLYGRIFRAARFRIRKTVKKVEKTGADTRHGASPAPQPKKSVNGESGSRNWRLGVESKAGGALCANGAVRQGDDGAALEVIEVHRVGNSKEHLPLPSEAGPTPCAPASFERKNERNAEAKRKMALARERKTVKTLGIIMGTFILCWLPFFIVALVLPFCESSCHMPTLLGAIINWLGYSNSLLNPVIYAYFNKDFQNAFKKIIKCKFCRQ
UniProt P41595, whole entry: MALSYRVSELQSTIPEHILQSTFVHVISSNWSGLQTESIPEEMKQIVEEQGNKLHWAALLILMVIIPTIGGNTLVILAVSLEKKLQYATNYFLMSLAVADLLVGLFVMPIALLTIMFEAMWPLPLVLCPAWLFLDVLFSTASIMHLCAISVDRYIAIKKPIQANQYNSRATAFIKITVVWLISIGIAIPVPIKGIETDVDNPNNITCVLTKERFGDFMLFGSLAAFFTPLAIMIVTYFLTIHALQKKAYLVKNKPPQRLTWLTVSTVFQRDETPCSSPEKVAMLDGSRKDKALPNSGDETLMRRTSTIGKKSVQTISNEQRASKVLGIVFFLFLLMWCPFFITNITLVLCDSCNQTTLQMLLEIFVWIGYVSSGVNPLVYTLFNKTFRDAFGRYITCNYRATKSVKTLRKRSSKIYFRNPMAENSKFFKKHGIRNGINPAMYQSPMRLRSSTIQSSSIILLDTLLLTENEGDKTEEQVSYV
UniProt P34969, whole entry: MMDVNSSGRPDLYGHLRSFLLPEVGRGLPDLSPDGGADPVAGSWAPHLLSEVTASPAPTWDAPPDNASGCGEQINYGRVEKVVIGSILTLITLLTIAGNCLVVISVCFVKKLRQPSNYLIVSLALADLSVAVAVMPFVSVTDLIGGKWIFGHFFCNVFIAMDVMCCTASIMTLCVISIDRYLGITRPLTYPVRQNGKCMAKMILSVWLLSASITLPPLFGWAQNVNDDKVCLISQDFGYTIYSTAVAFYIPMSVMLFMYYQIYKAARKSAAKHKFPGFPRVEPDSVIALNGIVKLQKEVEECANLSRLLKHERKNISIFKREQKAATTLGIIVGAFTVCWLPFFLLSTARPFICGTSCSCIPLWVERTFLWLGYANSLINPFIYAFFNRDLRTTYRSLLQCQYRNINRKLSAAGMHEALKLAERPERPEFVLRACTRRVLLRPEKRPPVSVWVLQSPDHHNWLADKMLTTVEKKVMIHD

Experiments:
[1] = target: D(2) dopamine receptor (Homo sapiens, UniProt P14416); test: Displacement of [3H]N-methylspiperone from human recombinant dopamine D2 receptor incubated for 1.5 hrs by microbeta scintillation counting method
[2] = target: D(4) dopamine receptor (Homo sapiens, UniProt P21917); test: Displacement of [3H]N-methylspiperone from human recombinant dopamine D4 receptor incubated for 1.5 hrs by microbeta scintillation counting method
[3] = target: D(3) dopamine receptor (Homo sapiens, UniProt P35462); test: Displacement of [3H]N-methylspiperone from human recombinant dopamine D3 receptor incubated for 1.5 hrs by microbeta scintillation counting method
[4] = target: Sodium-dependent serotonin transporter (Homo sapiens, UniProt P31645); test: Displacement of [3H]Citalopram from human recombinant SERT incubated for 1.5 hrs by microbeta scintillation counting method
[5] = target: Histamine H1 receptor (Homo sapiens, UniProt P35367); test: Displacement of [3H]Pyrilamine from human recombinant histamine H1 receptor incubated for 1.5 hrs by microbeta scintillation counting method
[6] = target: 5-hydroxytryptamine receptor 1A (Homo sapiens, UniProt P08908); test: Displacement of [3H]8-OH-DPAT from human recombinant 5HT1A receptor incubated for 1.5 hrs by microbeta scintillation counting method
[7] = target: 5-hydroxytryptamine receptor 2B (Homo sapiens, UniProt P41595); test: Displacement of [3H]LSD from human recombinant 5HT2B receptor incubated for 1.5 hrs by microbeta scintillation counting method
[8] = target: 5-hydroxytryptamine receptor 7 (Homo sapiens, UniProt P34969); test: Displacement of [3H]LSD from human recombinant 5HT7 receptor incubated for 1.5 hrs by microbeta scintillation counting method

Compound	Ki [1]	Ki [2]	Ki [3]	Ki [4]	Ki [5]	Ki [6]	Ki [7]	Ki [8]
O=c1[nH]c2cc(Cl)ccc2n1C1CCN(CCCCc2c[nH]c3ccccc23)CC1	135 nM							
O=c1[nH]c2cc(Cl)ccc2n1C1CCN(CCCCc2nc3ccccc3s2)CC1	214 nM	676 nM	162 nM					
O=c1[nH]c2cc(Cl)ccc2n1C1CCN(CCCCc2nc3ccccc3o2)CC1		832 nM		389 nM	501 nM	617 nM	513 nM	316 nM

Some compounds may have been tested in ways that are not shown here.
